Experimental data: patent EP4843994A1, “NOVEL PEPTIDE HAVING MUSCLE FORMATION-PROMOTING ACTIVITY, ANTI-OBESITY ACTIVITY AND ANTI-DIABETIC ACTIVITY AND USES THEREOF” (dated 2026)

Tests used:
[1] = test system: 3T3-L1 cells; test: Expression of insulin resistance and sensitivity related genes in oleic acid-treated adipocytes (RT-PCR); settings: 3T3-L1 adipocytes; 350 µM oleic acid (insulin resistance environment); peptide 5 µM, 50 µM; 48 hours
Experimental: 3T3-L1 cells (preadipocytes, American Type Culture Collection) were cultured in DMEM medium containing 2% BCS (Bovine Calf Serum) (Welgene, Korea). To differentiate 3T3-L1 cells into adipocytes, they were seeded into 12-well culture plates at a concentration of 1 x 10^5 cells/well, and when they became confluent (Day=2), the medium was changed once more and cultured for an additional 48 hours. After 48 hours (Day=0), the culture medium was replaced with DMEM medium containing 10% FBS, 1% P/S, 1 µg/ml insulin (Sigma, USA), 0.5 mM isobutylmethylxanthine (IBMX) (Sigma, USA) and 1 µM Dexamethasone (Sigma, USA) and cultured. After 2 days (Day=2), the medium was replaced with DMEM containing 10% FBS, 1% P/S, and 1 µg/ml insulin, and cultured. After 3 days (Day=5), the medium was replaced with one containing only 10% FBS and 1% P/S, and an insulin resistance environment was induced by adding 350 µM oleic acid (Sigma, St. Louis, MO, USA) for 24 hours. After 24 hours of induction, the medium was replaced with DMEM (10% FBS, 1% BSA) supplemented with 350 µM oleic acid (Sigma, St. Louis, MO, USA) and peptides (5 µM, 50 µM), and cultured for 48 hours. After culture, cells were harvested, and RNA was extracted using Trizol (Thermo Fisher Scientific, USA). The extracted RNA was synthesized to obtain DNA complementary to the RNA using TOPScript™ RT DryMIX (enzynomics, Korea), and then polymerase chain reaction (PCR) was performed on genes of markers related to insulin resistance or sensitivity using TOPsimple™ DryMIX-nTaq (enzynomics, Korea). Subsequently, the reaction products were run on a 1.5% agarose gel to compare the mRNA expression levels of the aforementioned markers for each sample. The primer sequences for the genes used in the PCR are listed in Table 6 below, and the GAPDH gene was used as a control.
Through the above experiment, it was aimed to determine whether insulin resistance is inhibited and insulin sensitivity is induced in 3T3-L1 adipocytes in which an insulin resistance environment was induced by oleic acid treatment by treating them with a peptide. The expression levels of relevant factors regarding the inhibition of insulin resistance or the induction of insulin sensitivity were confirmed via Western blot. As a result of the experiment, treatment with oleic acid in 3T3-L1 cells increased the expression level of p70S6K, which is an insulin resistance-related factor, and when the cells were treated with a peptide, the increased expression level of p70S6K decreased again. […]

[2] = test system: HepG2 cells; test: Fat accumulation in hepatocytes (Oil-Red O staining, oleic acid induced); settings: 500 µM oleic acid, peptide 5 µM, 50 µM, 48 hours
Experimental: HepG2 cells (human-derived hepatocytes) were cultured in DMEM medium containing 1% P/S and 10% FBS. When cell confluency reached approximately 70 to 80%, cells were seeded into a 12-well culture plate at a concentration of 1 x 10^5 cells/1 ml. Subsequently, when cell confluency reached approximately 70 to 80% in a 12-well culture plate, the medium was replaced with serum-free DMEM. After 4 hours, lipid accumulation was induced by replacing the medium with serum-free DMEM (1% BSA) supplemented with 500 µM oleic acid (Sigma, St. Louis, MO, USA). After inducing lipid accumulation for 24 hours, the medium was replaced with serum-free DMEM (1% BSA) supplemented with 500 µM oleic acid (Sigma, St. Louis, MO, USA) and peptides (5 µM, 50 µM), and cultured for 48 hours. To compare the degree of adipogenesis, the cells were washed twice with PBS and fixed with 10% formaldehyde. Oil-Red O solution (Sigma, USA) was added to the fixed cells to stain lipid globules for 2 hours, after which they were washed with distilled water (DW) and observed under a microscope. Subsequently, the distilled water was removed, the cells were dried, washed with isopropanol, and the absorbance was measured using a Spectrophotometer (SPECTRAMAX M2e) at an OD wavelength of 540 nm.

[3] = test system: HepG2 cells; test: Expression of insulin resistance and sensitivity related genes in hepatocytes (RT-PCR); settings: 500 µM oleic acid (insulin resistance environment), peptide 5 µM, 50 µM, 48 hours
Experimental: HepG2 cells (human-derived hepatocytes) were cultured in DMEM medium containing 1% P/S and 10% FBS. When cell confluency reached approximately 70 to 80%, cells were seeded into a 12-well culture plate at a concentration of 2 x 10^5 cells/ml. Subsequently, when cell confluency in the 12-well culture plate reached approximately 70 to 80%, the medium was replaced with serum-free DMEM medium. After 4 hours, an insulin resistance environment was induced by replacing the medium with serum-free DMEM (1% BSA) supplemented with 500 µM oleic acid (Sigma, St. Louis, MO, USA). After induction for 24 hours, the cells were replaced with serum-free DMEM (1% BSA) supplemented with 500 µM oleic acid (Sigma, St. Louis, MO, USA) and peptides (5 µM, 50 µM), and cultured for 48 hours. After culture, cells were harvested and RNA was extracted using Trizol (Thermo Fisher Scientific, USA). The extracted RNA was synthesized to obtain DNA complementary to the RNA using TOPScript™ RT DryMIX (enzynomics, Korea), and then polymerase chain reaction (PCR) was performed on genes of markers related to insulin resistance and sensitivity using TOPsimple™ DryMIX-nTaq (enzynomics, Korea). Subsequently, the reaction products were run on a 1.5% agarose gel to compare the mRNA expression levels of the markers for each sample. The primer sequences for the genes used in the PCR are listed in Table 4 below, and the GAPDH gene was used as a control group.
Through the above experiment, it was aimed to determine whether insulin sensitivity is induced by treating HepG2 cells, in which an insulin resistance environment was induced by oleic acid treatment, with peptides. Whether insulin sensitivity was induced was confirmed by analyzing the expression levels of factors related to insulin resistance or sensitivity using RT-PCR. As a result of the experiment, it was confirmed that treatment with oleic acid increased the expression levels of mTOR and P70S6K, which are factors related to insulin resistance, in HepG2 cells, but when the cells were treated with a peptide, the increased expression levels of mTOR and P70S6K decreased again in a concentration-dependent manner of the peptide. Additionally, it was confirmed that treatment with oleic acid decreased the expression levels of AKT, SIRT1, and AMPKα, which are factors related to insulin sensitivity, in HepG2 cells, but when the cells were treated with a peptide, the decreased expression levels of AKT, SIRT1, and AMPKα increased again (FIGS. 10A and 10B).

C[C@@H](O)[C@H](NC(=O)CNC(=O)[C@@H](N)Cc1c[nH]cn1)C(=O)N[C@@H](Cc1ccc(O)cc1)C(=O)O
expression level of AMPKα (gene) [1]: increased again | expression level of GLUT4 (gene) [1]: increased again | expression level of SIRT1 (gene) [1]: increased again | expression level of p70S6K (gene) [1]: decreased again | lipogenesis (Oil-Red O) [2]: inhibited | expression level of AKT (gene) [3]: increased again | expression level of AMPKα (gene) [3]: increased again | expression level of P70S6K (gene) [3]: decreased again in a concentration-dependent manner | expression level of SIRT1 (gene) [3]: increased again | expression level of mTOR (gene) [3]: decreased again in a concentration-dependent manner
